Structures are written as SMILES.

Sequences of proteins named here, by UniProt entry; tags and fusion partners are left off.
UniProt P35372, whole entry: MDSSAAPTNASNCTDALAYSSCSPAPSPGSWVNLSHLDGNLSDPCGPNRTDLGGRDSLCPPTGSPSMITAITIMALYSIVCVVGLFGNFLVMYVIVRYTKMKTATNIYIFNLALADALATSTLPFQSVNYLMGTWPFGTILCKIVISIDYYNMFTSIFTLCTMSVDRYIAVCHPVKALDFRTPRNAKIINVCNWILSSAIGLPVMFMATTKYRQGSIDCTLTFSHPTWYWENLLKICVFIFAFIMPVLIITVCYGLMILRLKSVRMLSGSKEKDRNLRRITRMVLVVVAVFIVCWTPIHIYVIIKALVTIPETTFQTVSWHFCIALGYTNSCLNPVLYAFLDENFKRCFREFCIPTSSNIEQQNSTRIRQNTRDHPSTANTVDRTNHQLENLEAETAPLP
UniProt P35372, whole entry N40D: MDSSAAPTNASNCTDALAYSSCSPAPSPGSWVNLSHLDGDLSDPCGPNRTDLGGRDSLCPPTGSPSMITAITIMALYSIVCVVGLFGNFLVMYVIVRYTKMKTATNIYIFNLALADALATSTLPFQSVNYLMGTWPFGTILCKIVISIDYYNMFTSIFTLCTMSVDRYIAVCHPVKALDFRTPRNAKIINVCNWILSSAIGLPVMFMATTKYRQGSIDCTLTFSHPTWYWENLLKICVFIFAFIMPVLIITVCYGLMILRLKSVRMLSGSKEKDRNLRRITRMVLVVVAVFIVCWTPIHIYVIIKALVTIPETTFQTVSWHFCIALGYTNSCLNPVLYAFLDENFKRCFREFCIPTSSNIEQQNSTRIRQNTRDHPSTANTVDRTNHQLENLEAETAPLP
UniProt P35372, whole entry A6V: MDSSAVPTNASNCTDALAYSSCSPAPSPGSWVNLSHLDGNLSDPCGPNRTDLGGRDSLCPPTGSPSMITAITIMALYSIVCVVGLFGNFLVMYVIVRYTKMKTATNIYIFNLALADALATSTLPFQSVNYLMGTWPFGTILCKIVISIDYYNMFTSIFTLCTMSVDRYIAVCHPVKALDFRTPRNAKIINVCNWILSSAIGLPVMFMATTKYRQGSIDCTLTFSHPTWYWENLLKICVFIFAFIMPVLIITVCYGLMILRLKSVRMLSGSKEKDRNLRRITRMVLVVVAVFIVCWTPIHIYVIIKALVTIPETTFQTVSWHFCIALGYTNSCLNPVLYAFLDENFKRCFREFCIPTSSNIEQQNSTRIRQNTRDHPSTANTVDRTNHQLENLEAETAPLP

One assay deals with µ receptor. The settings on record: operational model, five different studies; cited from earlier work.
For the next assay, the system named is OPRM1 knock‐out mice. The conditions noted are these: mouse, in vivo; cited from earlier work.
Assay [1] deals with human µ receptor wild‐type (WT) (Homo sapiens, UniProt P35372). The assay is classed as cell-based.
A further assay concerns the target human µ receptor N40D (Homo sapiens, UniProt P35372, N40D). The assay is classed as cell-based.
A further assay concerns the target human µ receptor A6V (Homo sapiens, UniProt P35372, A6V). The assay is classed as cell-based.

On to `CN1CC[C@]23c4c5ccc(O)c4O[C@H]2[C@@H](O)C=C[C@H]3[C@H]1C5` [Morphine], for which the “average intrinsic efficacy relative to DAMGO” value in the assay on µ receptor is 0.19 ± 0.08. In the assay on OPRM1 knock‐out mice, the analgesic effect entry is recorded as “completely abolished”.

On to `CN(C)C[C@H]1CCCC[C@]1(O)c1cccc(O)c1` [O‐Tramadol, O‐desmethyl tramadol], for which the “Relative tau (intrinsic efficacy relative to DAMGO)” value is 0.08 ± 0.02 in assay [1], 0.03 ± 0.00 on human µ receptor N40D and 0.08 ± 0.04 on human µ receptor A6V. Besides, the pKA in assay [1] is reported as 5.33 ± 0.4; on human µ receptor N40D, 5.38 ± 0.34; at human µ receptor A6V it was 5.55 ± 0.3.

The record behind these values is PMC8929351 (Pharmacology Research & Perspectives, 2022).
